Experimental data published in patent publication US20230381162A1, “TREATMENTS OF ANGIOEDEMA” (KALVISTA PHARMACEUTICALS LIMITED, priority 2020, published 2023).

The chains behind the UniProt entries cited, without tags or fusion partners. Residues count along the entry.
UniProt P03952, 20-390 partner limits assumed: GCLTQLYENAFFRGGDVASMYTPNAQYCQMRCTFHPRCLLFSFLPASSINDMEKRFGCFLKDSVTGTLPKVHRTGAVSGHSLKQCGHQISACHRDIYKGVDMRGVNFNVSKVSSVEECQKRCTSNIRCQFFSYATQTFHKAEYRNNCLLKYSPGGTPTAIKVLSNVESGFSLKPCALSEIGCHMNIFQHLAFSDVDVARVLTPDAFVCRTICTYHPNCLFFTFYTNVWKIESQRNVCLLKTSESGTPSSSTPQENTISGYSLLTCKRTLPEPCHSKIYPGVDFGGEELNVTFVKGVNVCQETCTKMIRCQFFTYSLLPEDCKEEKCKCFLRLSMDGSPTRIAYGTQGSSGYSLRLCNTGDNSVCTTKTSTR
UniProt P03952, 391-638 limits assumed: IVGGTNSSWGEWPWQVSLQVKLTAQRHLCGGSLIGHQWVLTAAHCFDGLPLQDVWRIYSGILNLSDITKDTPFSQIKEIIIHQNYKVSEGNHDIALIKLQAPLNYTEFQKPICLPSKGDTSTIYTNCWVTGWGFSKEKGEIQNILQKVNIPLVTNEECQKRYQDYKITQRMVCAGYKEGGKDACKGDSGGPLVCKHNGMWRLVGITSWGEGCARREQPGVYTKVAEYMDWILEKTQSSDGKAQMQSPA

Biological target: plasma kallikrein (Homo sapiens, UniProt P03952)
Assay: Phase 1 study: ex vivo PKa catalytic activity in DXS-stimulated undiluted plasma
Parameters: PD measurements were determined in dextran sulfate (DXS) stimulated undiluted plasma using a fluorogenic enzyme assay; from tissue; host or cells: undiluted plasma of healthy adult male volunteers after oral dosing, DXS-stimulated ex vivo
Settings: 600 mg tablet, by 30 minutes, fed and fasted state
Procedure: PD measurements were determined in dextran sulfate (DXS) stimulated undiluted plasma using a fluorogenic enzyme assay and capillary based HK cleavage immunoassay.
The time until appearance of detectable amidolytic enzyme activity in DXS-stimulated plasma (lag time) was calculated from the catalytic activity assay. The detection sensitivity of the rate of catalytic activity in plasma based on using a Spark (Tecan) fluorimeter is a fluorescence increase to reach 1ΔF unit/sec.

COCc1nn(Cc2ccc(Cn3ccccc3=O)cc2)cc1C(=O)NCc1nccc(OC)c1F [compound of Formula A, N-[(3-fluoro-4-methoxypyridin-2-yl)methyl]-3-(methoxymethyl)-1-({4-[(2-oxopyridin-1-yl)methyl]phenyl}methyl)pyrazole-4-carboxamide]
inhibition at 600 mg: > 90%
